Source: publication PMC2778643, “Differential role of the menthol-binding residue Y745 in the antagonism of thermally gated TRPM8 channels” (Molecular Pain, 2009)

By UniProt entry, the sequences of proteins in these tests, tags left out.
UniProt Q8R4D5, whole entry Y745H: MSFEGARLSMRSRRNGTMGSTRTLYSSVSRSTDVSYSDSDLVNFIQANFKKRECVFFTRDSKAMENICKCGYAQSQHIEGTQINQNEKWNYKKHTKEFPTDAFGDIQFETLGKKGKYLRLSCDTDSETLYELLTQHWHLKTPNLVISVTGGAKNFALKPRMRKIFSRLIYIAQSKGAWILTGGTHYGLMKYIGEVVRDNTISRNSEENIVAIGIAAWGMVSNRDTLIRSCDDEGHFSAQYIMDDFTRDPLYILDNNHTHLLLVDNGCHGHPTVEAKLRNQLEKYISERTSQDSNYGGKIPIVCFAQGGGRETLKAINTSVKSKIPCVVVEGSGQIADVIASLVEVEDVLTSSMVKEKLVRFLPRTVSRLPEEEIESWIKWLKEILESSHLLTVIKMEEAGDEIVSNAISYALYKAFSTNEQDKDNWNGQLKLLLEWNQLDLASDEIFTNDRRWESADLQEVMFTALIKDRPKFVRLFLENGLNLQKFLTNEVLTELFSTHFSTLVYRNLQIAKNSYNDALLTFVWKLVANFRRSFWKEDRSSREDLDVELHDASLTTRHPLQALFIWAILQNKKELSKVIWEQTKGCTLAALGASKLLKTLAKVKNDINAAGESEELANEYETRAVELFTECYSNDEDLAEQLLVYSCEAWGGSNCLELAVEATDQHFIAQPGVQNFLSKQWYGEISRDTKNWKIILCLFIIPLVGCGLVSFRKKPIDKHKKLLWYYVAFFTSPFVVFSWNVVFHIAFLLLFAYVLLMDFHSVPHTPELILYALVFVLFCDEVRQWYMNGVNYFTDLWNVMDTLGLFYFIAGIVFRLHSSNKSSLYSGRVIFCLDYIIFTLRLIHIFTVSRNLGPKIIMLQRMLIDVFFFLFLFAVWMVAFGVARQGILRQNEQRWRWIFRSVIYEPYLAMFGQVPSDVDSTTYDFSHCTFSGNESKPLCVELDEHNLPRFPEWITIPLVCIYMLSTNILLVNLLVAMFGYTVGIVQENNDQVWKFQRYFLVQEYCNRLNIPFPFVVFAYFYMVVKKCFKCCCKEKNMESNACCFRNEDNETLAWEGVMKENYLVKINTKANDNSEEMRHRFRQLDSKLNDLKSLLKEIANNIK

Target: T1, TRPM8-Y745H mutant channel (Mus musculus, UniProt Q8R4D5, Y745H)
T1 construct: The full length cDNA encoding mouse TRPM8 (NM_134252) in pcDNA5; expressed in transfected cells; host or cells: HEK293
Test: Calcium imaging (Fura-2) of HEK293 cells expressing TRPM8-Y745H
Format: cell-based
Protocol: The full length cDNA encoding mouse TRPM8 (NM_134252) in pcDNA5 (Invitrogen) was kindly provided by Dr. Ardem Patapoutian, (Scripps Research Institute, La Jolla, CA). The TRPM8-Y745H mutant was obtained by site-directed mutagenesis with the following primers: (for) 5'-[…]-3'; (rev) 5'-[…]-3', and Pfu Turbo Taq DNA Polymerase (Roche).
HEK293 cells were cultured in DMEM containing 10% of foetal bovine serum and antibiotics, and plated in 2 cm^2 wells at 400.000-500.000 cells/well. 20-24 h after plating, the cells were co-transfected with eGFP (0.3 μg/well) and TRPM8-wt or TRPM8-Y745H (2 μg/well) by incubating them with a solution containing the plasmid DNA and Lipofectamine 2000 (Invitrogen) for 5 hours. Subsequently, the cells were trypsinized and replated on poly-L-lysine-coated round coverslips (6 mm diameter). […]
Prior to experiment, HEK293 cells transfected with the TRPM8-wt/Y745H constructs were incubated with 5 μM Fura-2AM dissolved in the bath solution and 0.02% Pluronic (both from Invitrogen) for 40 min at 37°C in darkness. Fluorescence measurements were made with a Leica DM IRE2 inverted microscope fitted with a CCD camera (Imago QE Sensicam, TillPhotonics, Graefelfing, Germany). Fura-2 was excited at 340 nm and 380 nm with a Polychrome IV monochromator (Till Photonics) and the emitted fluorescence was filtered with a 510 nm longpass filter. […]

Inhibitory potency at cooling-activated TRPM8-Y745H compared with wild-type (dose-inhibition curves): significantly reduced
Structure (SMILES): Clc1ccc(COC(Cn2ccnc2)c2ccc(Cl)cc2Cl)cc1 (stereo not shown) [Econazole, 1-[2-[(4-chlorophenyl)methoxy]-2-(2,4-dichlorophenyl)ethyl]-1H-imidazole]
